Results on one compound are retold here after patent US12115157B2, “3-phenoxyazetidin-1-yl-heteroaryl pyrrolidine derivatives and the use thereof as medicament” (Boehringer Ingelheim International GmbH, priority 2021, dated 2024).

The chains behind the UniProt entries cited, without tags or fusion partners.
UniProt Q9Y2T5, whole entry: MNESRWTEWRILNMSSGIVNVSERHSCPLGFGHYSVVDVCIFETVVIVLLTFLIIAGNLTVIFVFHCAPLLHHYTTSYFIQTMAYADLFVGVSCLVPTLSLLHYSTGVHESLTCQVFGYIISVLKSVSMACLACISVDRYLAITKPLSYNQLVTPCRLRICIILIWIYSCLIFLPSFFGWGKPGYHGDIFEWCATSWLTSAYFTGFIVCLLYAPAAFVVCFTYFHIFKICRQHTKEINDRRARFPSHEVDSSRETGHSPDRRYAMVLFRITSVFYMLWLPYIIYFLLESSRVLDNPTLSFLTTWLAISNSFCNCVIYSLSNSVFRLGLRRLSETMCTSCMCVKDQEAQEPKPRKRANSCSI
UniProt Q12809, whole entry: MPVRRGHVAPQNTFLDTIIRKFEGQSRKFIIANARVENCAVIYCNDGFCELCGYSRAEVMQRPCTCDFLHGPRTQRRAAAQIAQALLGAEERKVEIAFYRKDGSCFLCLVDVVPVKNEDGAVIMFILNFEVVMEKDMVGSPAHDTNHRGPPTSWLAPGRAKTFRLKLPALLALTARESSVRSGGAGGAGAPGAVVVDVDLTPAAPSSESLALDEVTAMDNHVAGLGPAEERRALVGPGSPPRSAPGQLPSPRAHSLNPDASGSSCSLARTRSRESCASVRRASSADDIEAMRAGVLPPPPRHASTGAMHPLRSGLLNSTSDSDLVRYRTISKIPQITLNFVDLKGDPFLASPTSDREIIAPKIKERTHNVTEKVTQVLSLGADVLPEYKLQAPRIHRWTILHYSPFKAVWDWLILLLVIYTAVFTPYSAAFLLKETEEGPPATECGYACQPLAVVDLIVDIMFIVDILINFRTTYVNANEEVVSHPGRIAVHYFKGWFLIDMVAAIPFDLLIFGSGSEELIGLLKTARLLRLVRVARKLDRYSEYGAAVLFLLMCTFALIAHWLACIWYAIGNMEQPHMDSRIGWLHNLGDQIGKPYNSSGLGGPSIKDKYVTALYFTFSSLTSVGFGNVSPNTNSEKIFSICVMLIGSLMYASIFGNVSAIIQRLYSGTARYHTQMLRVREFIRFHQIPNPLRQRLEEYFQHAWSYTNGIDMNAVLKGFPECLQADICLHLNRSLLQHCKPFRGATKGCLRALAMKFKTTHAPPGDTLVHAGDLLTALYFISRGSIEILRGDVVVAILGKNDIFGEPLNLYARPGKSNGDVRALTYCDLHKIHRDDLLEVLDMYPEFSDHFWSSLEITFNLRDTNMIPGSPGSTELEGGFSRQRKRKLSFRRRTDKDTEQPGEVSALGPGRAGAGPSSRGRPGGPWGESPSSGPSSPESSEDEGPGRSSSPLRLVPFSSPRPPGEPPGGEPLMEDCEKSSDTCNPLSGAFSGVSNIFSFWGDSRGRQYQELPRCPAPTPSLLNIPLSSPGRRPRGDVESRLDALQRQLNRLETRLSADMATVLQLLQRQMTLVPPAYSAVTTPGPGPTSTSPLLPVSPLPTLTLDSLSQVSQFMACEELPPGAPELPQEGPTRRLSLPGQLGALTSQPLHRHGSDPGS

SMILES strings stand for the structures.

The target in one series is human GPR52 (Homo sapiens (Human), UniProt Q9Y2T5). Nature of the series: HTRF assay for direct cAMP measurement. Conditions: read-out: GPR52 EC50, CHO-K1 cells stably expressing recombinant human GPR52, mean EC50. Here is the method:
HTRF cAMP assays were performed using commercially available assay kits according to the manufacturer's instructions (cAMP Dynamic 2 Assay Kit; #62AM4PEJ, Cisbio Bioassays, Bedford, MA). An aliquot of CHO-K1 cells stably expressing recombinant human GPR52 was thawed and resuspended in cell buffer (1×PBS (w/o Ca^2+/Mg^2+)) at a density of 4×10^5 cells per mL. Test compounds were solubilized in DMSO to 10 mM stock solutions and serially diluted in DMSO using 6-fold dilutions to generate 8-point dose response curves. These serially diluted samples were then diluted 1:50 in compound dilution buffer (1×PBS (w/o Ca^2+/Mg^2+) containing 0.5 mM IBMX, 0.1% BSA) to achieve a 4× stock. […] Plates were then incubated at room temperature for one hour prior to reading. Time-resolved fluorescence measurements were collected on an EnVision® HTRF plate reader (PerkinElmer, Waltham, MA). Counts from the plate reader were fit to the cAMP standard curve included on each plate to determine the amount of cAMP in each test well. The % control was calculated based on the […]. Dose-response curves were generated from the cAMP data and analyzed using a nonlinear least squares curve-fitting program to obtain EC50 values.

A further series has as its target hERG channel (Homo sapiens (Human), UniProt Q12809). Nature of the series: hERG channel assay (whole-cell patch clamp). Particulars: read-out: hERG IC50, HEK293 cells stably transfected with hERG cDNA. From the text:
hERG Channel inhibition of compounds of the present invention was investigated as follows:
HEK (human embryonic kidney) 293 cells were stably transfected with hERG cDNA. Cells determined for use in patch clamp experiments were cultivated without antibiotic.
Cells were superfused with a bath solution containing (mM): NaCl (137), KCl (4.0), MgCl2 (1.0), CaCl2(1.8), Glucose (10), HEPES (10), pH 7.4 with NaOH. Patch pipettes were made from borosilicate glass tubing using a pipette and filled with pipette solution containing (mM): K-aspartate (130), MgCl2(5.0), EGTA (5.0), K2ATP (4.0), HEPES (10.0), pH 7.2 with KOH. Resistance of the microelectrodes was typically in the range between 2 MΩ and 5 MΩ.
Membrane currents were recorded using an EPC-10 patch clamp amplifier (HEKA Electronics, Lambrecht, FRG) and PatchMaster software (HEKA). hERG-mediated membrane currents were recorded at typically 28° C., using the whole-cell configuration of the patch-clamp technique. […] During each inter-pulse interval 4 pulses scaled down by a factor of 0.2 were recorded for a P/n leak subtraction procedure. […] The remaining uncompensated Rs was recorded as well as actual temperature and holding current. […]
Peak current amplitudes were measured 3 ms after the ramp to +40 mV. […] Residual currents (I/I0) were calculated for each cell as the fraction of actual average peak current and average baseline peak current. […]

A further series concerns human plasma proteins. Nature of the series: Human plasma protein binding assay (equilibrium dialysis). Conditions: 1 μM, 2 hours, 37° C. The method, then:
Equilibrium dialysis (ED) technique was used to determine the approximate in vitro fractional binding of test compounds to plasma proteins. Dianorm Teflon dialysis cells (micro 0.2) were used. Each dialysis cell consists of a donor and an acceptor chamber, separated by an ultrathin semipermeable membrane with a 5 kDa molecular weight cut-off. Stock solutions for each test compound were prepared in DMSO at 1 mM and serially diluted to obtain a final test concentration of 1 μM. The subsequent dialysis solutions were prepared in plasma (supplemented with NaEDTA as anticoagulant), and aliquots of 200 μL test compound dialysis solution in plasma were dispensed into the donor (plasma) chambers. Aliquots of 200 μL dialysis buffer (100 mM potassium phosphate, pH 7.4) were dispensed into the buffer (acceptor) chamber. Incubation was carried out for 2 hours under rotation at 37° C. for establishing equilibrium.
At the end of the dialysis period, aliquots obtained from donor and acceptor chambers, respectively, were transferred into reaction tubes, spiked with Internal Standard solution and processed for HPLC-MS/MS analysis. Analyte concentrations were quantified in aliquots of samples by HPLC-MS/MS against external calibration curves.
Percent bound was calculated using the formula: % bound=(plasma concentration−buffer concentration/plasma concentration)×100
Background: In equilibrium dialysis only unbound substance equilibrates across the membrane.

The subject of the next series is human hepatocytes. As to the kind of experiment: Metabolic stability in human hepatocytes. Conditions: human hepatocyte suspension, 1 μM; predicted hepatic clearance as percentage of hepatic blood flow. Here is the method:
The metabolic degradation of a test compound was assayed in a human hepatocyte suspension. After recovery from cryopreservation, human hepatocytes were diluted in Dulbecco's modified eagle medium (supplemented with 3.5 μg glucagon/500 mL, 2.5 mg insulin/500 mL, 3.75 mg hydrocortisone/500 mL, 5% human serum) to obtain a final cell density of 1.0×10^6 cells/mL or 4.0×10^6 cells/mL, depending on the metabolic turnover rate of the test compound.
Following a 30 minutes preincubation in a cell culture incubator (37° C., 10% CO2), test compound solution was spiked into the hepatocyte suspension, resulting in a final test compound concentration of 1 μM and a final DMSO concentration of 0.05% (v/v).
The cell suspension was incubated at 37° C. […]
The percentage of remaining test compound was calculated using the peak area ratio (test compound/internal standard) of each incubation time point relative to the time point 0 peak area ratio. […]
In vitro intrinsic clearance (CLint) was calculated from in vitro T1/2 and scaled to whole liver using a hepatocellularity of 120×10^6 cells/g liver, a human liver per body weight of 25.7 g liver/kg as well as in vitro incubation parameters, applying the following equation: CL_INTRINSIC_IN VIVO[mL/min/kg]=(CL_INTRINSIC[μL/min/10^6 cells]×hepatocellularity[10^6 cells/g liver]×liver factor[g/kg body weight])/1000 […]

Turning to `CC(=O)N1C[C@@H](F)[C@@H](NC(=O)c2nccnc2N2CC(Oc3ccc(F)c(F)c3)C2)C1` (relative stereo), at human GPR52, the EC50 – broadly, the concentration needed to bring the measured effect to its halfway point – turned out to be 92 nM. The IC50 – broadly, the point on the concentration scale where inhibition reaches its midpoint – at hERG channel was greater than 10000 nM. Also, the “Hu PPB” value in the series on human plasma proteins is reported as 72.3 % bound. Moreover, the “Human HepStab” value in the series with human hepatocytes is less than 4.1 % QH.
